Source: ChEMBL document CHEMBL5230155, “Recent contributions of quinolines to antimalarial and anticancer drug discovery research” (Eur J Med Chem, 2021)

By UniProt entry, the sequences of proteins in these tests, tags left out.
UniProt P35354, whole entry: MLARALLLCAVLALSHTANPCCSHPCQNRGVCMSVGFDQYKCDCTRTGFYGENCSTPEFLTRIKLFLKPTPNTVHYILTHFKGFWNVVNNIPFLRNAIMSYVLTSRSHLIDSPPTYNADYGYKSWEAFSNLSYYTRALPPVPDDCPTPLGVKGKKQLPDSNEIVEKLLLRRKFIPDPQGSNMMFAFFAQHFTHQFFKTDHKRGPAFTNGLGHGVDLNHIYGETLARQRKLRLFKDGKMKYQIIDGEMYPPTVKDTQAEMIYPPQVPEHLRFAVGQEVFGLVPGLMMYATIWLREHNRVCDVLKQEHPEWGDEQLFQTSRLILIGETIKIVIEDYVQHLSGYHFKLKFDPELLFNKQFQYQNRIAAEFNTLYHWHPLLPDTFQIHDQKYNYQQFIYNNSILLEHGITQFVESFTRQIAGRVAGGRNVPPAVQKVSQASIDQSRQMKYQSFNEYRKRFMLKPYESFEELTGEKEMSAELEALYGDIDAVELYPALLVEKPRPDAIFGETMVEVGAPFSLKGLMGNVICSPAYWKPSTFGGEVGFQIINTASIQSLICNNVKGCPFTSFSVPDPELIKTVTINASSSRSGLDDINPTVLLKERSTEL

Biological target: Prostaglandin G/H synthase 2 (Homo sapiens, UniProt P35354)
Experiment: Potency index, ratio of celecoxib IC50 to test compound IC50 for inhibition of COX-2 (unknown origin)

Compound COc1ccc2ccc(F)c(CC(=O)N/N=C/c3cccc(C(F)(F)F)c3)c2n1 has a Ratio IC50 of 3.

COc1ccc2ccc(F)c(CC(=O)N/N=C/c3ccc(C(F)(F)F)cc3)c2n1 gave a Ratio IC50 of 3.
